# Test system: N87 cells
# Assay: Cell viability CellTiter-Glo, N87
# Format: cell-based, human
substance,measurement,value
"TDM1: ""treated intravenously with vehicle or 10 mg/kg trastuzumab, TDM1, or an exemplary HER2-ADC"" [reference compound]",Rmin % NCI-N87 (in vitro),−37%
